High-throughput results deposited in PubChem BioAssay by Broad Institute.
RAD54 branch = inhibitors of human RAD54 branch migration; Q92698; RAD54 Holliday junction branch migration, FAM/BHQ fluorescence; inhibition, % at 10.4 µM; 0.14% of 360,000 active;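 active = mean normalized replicate activity at least 40 and at least half of replicates scoring 40 or more; inconclusive = only one of the two criteria met; inactive = mean below 40 and under half of replicates reaching 40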;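 also: 0% = median of neutral control wells and 100% = median of positive control wells; inhibitors cause a drop in the FAM fluorescence signal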
Casp6 inh = caspase-6 (human) enzyme inhibition. purified caspase-6, Z-VEID-R110 cleavage fluorescence. inhibition, % at 12.5 µM. 0.53% of 350,000 active. AID 686996;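 active = mean inhibition across replicates at least about 35%, with every replicate also reaching that limit, limit read from the data; inconclusive = only one of the two criteria met; inactive = neither criterion met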;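 also: 0% = median of neutral control wells and 100% = no fluorescence left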
RAD52 inh = blocks human RAD52 DNA annealing. P43351. recombinant RAD52 DNA annealing, FRET fluorescence. 0.46% of 360,000 active. inhibition, % at 18.7 µM. AID 651710;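 active = every replicate showing at least 50% inhibition; inconclusive = mean inhibition at least 50% but not in every replicate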
Yeast UUG start = alters start codon recognition fidelity in yeast; AID 602363; activity score, % at 18.7 µM; 350,000 tested, 0.13% active; S. cerevisiae UUG-firefly luciferase reporter, luminescence/redox ratio;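 active means replicate mean at a twofold rise or more, about +100% in these data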;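 further: firefly luciferase made from a UUG start codon reports start codon fidelity; reporter light over untreated wells divided by growth signal over untreated wells; some hits fall short of that in this replicate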
PglD inh = inhibitors of Campylobacter jejuni PglD acetyltransferase; 0.098% of 360,000 active; AID 602405; inhibition, % at 12.5 µM; purified PglD enzyme, DTNB colorimetric CoA detection; in the data active = inhibition above about 16%, passing the limit was not always enough; inconclusive = no clear call, values can overlap the other calls
INS-1E GSIS act = GLuc luminescence reporter in INS-1E cells, primary screen for activators of glucose-dependent secretion of insulin. INS-1E GLuc reporter insulin secretion, 2-3 h. activation, % at 16.6 µM. 0.61% of 370,000 active;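 active = lowest replicate activation of at least 40%, so every replicate reaches that level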;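 also: 0% = median of neutral control wells and 100% = median of IBMX positive control wells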
PglD confirm = confirmation of Campylobacter jejuni PglD acetyltransferase inhibitors. shares compounds with PglD inh. Purified C. jejuni PglD, DTNB absorbance 412 nm. inhibition, % at 20 µM. 320 tested, under 10 active. AID 743156;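 active = mean inhibition across replicates of at least 20% with every single replicate also at 20% or more; inconclusive = mean inhibition at least 20% but some replicate falls below 20%; inactive = mean inhibition under 20% and not all replicates reach it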;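 also: initial rate of CoA release by acetyl transfer from AcCoA to the UDP-4-amino sugar; 0% = median of neutral control wells and 100% = median of positive control wells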
* = called active by the depositor. An excerpt weighted towards active compounds, which were near 1.5% of everything screened.

How did COc1ccc(CCCNC(=O)C2(C)Cc3c(-c4ccc5c(c4)OCO5)ccnc3O2)cc1 (configuration not stated) do in these assays?
RAD54 branch: 1.3; Casp6 inh: -2.4; RAD52 inh: -8.9; Yeast UUG start: -0.5; PglD inh: 21.9*; INS-1E GSIS act: -14.0; PglD confirm: -0.1

What do the screens show for `COC(=O)C(=N/Nc1ccccc1C(=O)OC)/C(C)=N/O`?
RAD54 branch: 13.1; Casp6 inh: -2.0; RAD52 inh: -2.3; Yeast UUG start: -31.4; PglD inh: 20.2*; INS-1E GSIS act: 12.7; PglD confirm: 1.9

How did CCOc1ccc(NC(=O)NN2C(C)CCCC2C)cc1 (configuration not stated) do in these assays?
RAD54 branch: -13.9; Casp6 inh: 2.7; RAD52 inh: 7.1; Yeast UUG start: -1.0; PglD inh: 20.0*; INS-1E GSIS act: -3.0; PglD confirm: 6.2

How did C[C@H](CO)N1C[C@H](C)[C@H](CN(C)Cc2ccc(C(=O)O)cc2)Oc2ccc(NC(=O)CCCN(C)C)cc2C1=O do in these assays?
RAD54 branch: -4.4; Casp6 inh: 2.5; RAD52 inh: -14.6; PglD inh: -3.1; INS-1E GSIS act: -5.0

Results for COC(=O)c1cccc(NC(=S)NCCC2=CCCCC2)c1 ?
RAD54 branch: 7.1; Casp6 inh: 3.0; RAD52 inh: -8.2; Yeast UUG start: -26.6; PglD inh: 66.2*; INS-1E GSIS act: -5.5; PglD confirm: 2.1

What do the screens show for `COC(=O)c1ccc(NC(=S)NCCC2=CCCCC2)cc1`?
RAD54 branch: -2.5; Yeast UUG start: -30.3; PglD inh: -8.9

How did N#C/C(=N\O)c1nc2ccccc2[nH]1 do in these assays?
INS-1E GSIS act: 6.8

How did Cc1ccc2nc(/C(C#N)=N/O)[nH]c2c1 do in these assays?
RAD54 branch: -5.9; Yeast UUG start: -24.1; PglD inh: 37.8*; PglD confirm: -12.1

What do the screens show for `Cc1ccc([N+](=O)[O-])c(C(=O)Nc2cccnc2Cl)c1`?
RAD54 branch: -2.6; Casp6 inh: 4.2; RAD52 inh: 0.4; Yeast UUG start: -10.2; PglD inh: 20.8*; INS-1E GSIS act: 9.2; PglD confirm: -3.8

How did NC(N)=NN=C1CCC(c2ccccc2)CC1 (configuration not stated) do in these assays?
RAD54 branch: -1.8; Casp6 inh: -8.0; RAD52 inh: -17.4; Yeast UUG start: -17.8; PglD inh: 25.2*; INS-1E GSIS act: -1.3; PglD confirm: 2.9

Results for CCCCNC(=O)/C(C#N)=C/c1ccc(-c2ccc(S(=O)(=O)N3CCOCC3)cc2)o1 ?
RAD54 branch: -23.8; Yeast UUG start: -3.3; PglD inh: -8.3; INS-1E GSIS act: -13.9

What do the screens show for `COc1cccc(CNCCc2c[nH]c3ccccc23)c1OCc1ccc(F)cc1`?
RAD54 branch: 5.3; Yeast UUG start: -6.6; PglD inh: 26.3*; INS-1E GSIS act: -24.1; PglD confirm: 0.7

Results for Cc1cccc(N2CCN(C(=S)Nc3ccc4nc5n(c(=O)c4c3)CCCCC5)CC2)c1C ?
Casp6 inh: -1.7; RAD52 inh: -26.7; INS-1E GSIS act: 3.3

Results for CCCCNC(=O)Nc1nnc(-c2ccccc2)o1 ?
RAD54 branch: -16.4; Yeast UUG start: -12.1; PglD inh: 39.4*; PglD confirm: 2.0

Results for CC(C)Cc1nc(N2CCN(C(=O)c3ccco3)CC2)c(C#N)c2c1CCC2 ?
RAD54 branch: -10.4; Yeast UUG start: -7.2; PglD inh: 21.0*; PglD confirm: inconclusive

What do the screens show for `O=C(Nc1cnccc1C(F)(F)F)NC1CCCCC1`?
RAD54 branch: 5.8; Casp6 inh: 7.5; RAD52 inh: -8.8; Yeast UUG start: -13.1; PglD inh: -10.1; INS-1E GSIS act: 8.6

Results for C#CC1CCCCC1NC(=O)Nc1cnccc1C(F)(F)F (configuration not stated) ?
RAD54 branch: 0.0; Casp6 inh: 1.2; RAD52 inh: -14.4; Yeast UUG start: -7.5; PglD inh: 20.1*; INS-1E GSIS act: 2.2; PglD confirm: -2.2

Results for CCOC(=O)C1CCCN(CCC(=O)Nc2ccc(Br)c(C)c2)C1 (configuration not stated) ?
RAD54 branch: -1.8; Casp6 inh: -5.0; RAD52 inh: -1.1; Yeast UUG start: -7.1; PglD inh: 71.4*; INS-1E GSIS act: -24.0; PglD confirm: 0.1

Sorted by length of the SMILES (rising): some entries from above.
Results for COC(=O)c1cccc(NC(=S)NCCC2=CCCCC2)c1 ?
RAD54 branch: 7.1; Casp6 inh: 3.0; RAD52 inh: -8.2; Yeast UUG start: -26.6; PglD inh: 66.2*; INS-1E GSIS act: -5.5; PglD confirm: 2.1

What do the screens show for `COC(=O)C(=N/Nc1ccccc1C(=O)OC)/C(C)=N/O`?
RAD54 branch: 13.1; Casp6 inh: -2.0; RAD52 inh: -2.3; Yeast UUG start: -31.4; PglD inh: 20.2*; INS-1E GSIS act: 12.7; PglD confirm: 1.9

Results for CC(C)Cc1nc(N2CCN(C(=O)c3ccco3)CC2)c(C#N)c2c1CCC2 ?
RAD54 branch: -10.4; Yeast UUG start: -7.2; PglD inh: 21.0*; PglD confirm: inconclusive
